Measurements: patent US6835539B1, “Nucleic sequences coding for an AT2 interacting proteins interacting with the AT2 receptor and their applications” (priority 1998, dated 2004)

Target: T1, AT2 receptor (Homo sapiens, UniProt P50052)
T1 sequence (P50052 1-363): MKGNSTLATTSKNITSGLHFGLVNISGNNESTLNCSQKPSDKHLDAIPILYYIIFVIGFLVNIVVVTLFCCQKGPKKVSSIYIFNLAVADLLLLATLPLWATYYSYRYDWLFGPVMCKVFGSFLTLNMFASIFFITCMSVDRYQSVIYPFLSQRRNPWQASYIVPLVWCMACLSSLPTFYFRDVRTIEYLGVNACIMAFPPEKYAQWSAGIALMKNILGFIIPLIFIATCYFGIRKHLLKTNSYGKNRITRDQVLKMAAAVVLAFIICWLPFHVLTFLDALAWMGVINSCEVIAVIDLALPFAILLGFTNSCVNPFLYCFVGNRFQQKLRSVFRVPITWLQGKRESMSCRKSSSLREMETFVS
Experiment: Inhibition of insulin-induced tyrosine phosphorylation in CHO-hAT2 cells
Type: cell-based
Design: a plasmid containing the region encoding the human AT2 receptor; expressed in transfected cells; host or cells: CHO cells deficient in dihydrofolate reductase (clone CHO-hAT2)
Conditions: 100 nM, all insulin doses between 0.1 and 0.001 μg/ml, 5 minutes
Description: For that, a stable clone of CHO-hAT2 cells expressing the ATIPmouse-long protein (CHO-hAT2-ATIP), obtained according to the methodology described in Example 4, was used; the functional test for the activity of the AT2 receptor developed on the CHO-hAT2 clone which consists in inhibiting the phosphorylation of the IRβ subunit of the insulin receptor induced by its ligand, was reproduced.
The CHO-hAT2 cells are inoculated at a density of 3×10^6 cells per dish having a diameter of […]. They are made quiescent by 16 hours of deprivation before being treated. The treatment consists in bringing into contact for 5 minutes with 15 ml of F12 medium containing insulin supplemented or otherwise with CGP42112 (selective agonist of the AT2 receptor). […] After bringing into contact and washings, the lectin beads coupled to Sepharose (Pharmacia) are recovered in sample buffer containing SDS and the eluted proteins are analysed in SDS-PAGE followed by immunoblotting with anti-phosphotyrosine antibodies (Upstate Biotechnology, Inc.) or anti-IRβ antibodies (described in Issad, T. et al., cited above).

## Angiotensin II
  inhibition of the phosphorylation of IRβ induced by insulin: inhibit
